{
  "source": "patent US5780303A",
  "about": "“Method and composition for treating thrombosis” (priority 1995, dated 1998)",
  "test_system": "platelets",
  "experiment": "Ex vivo platelet aggregation in canine coronary thrombosis model",
  "design": "species or system dog",
  "conditions": "3 mg/kg",
  "procedure": "For all ex vivo studies (see FIG. 3), control aggregation values were standardized to the percentages of light transmission observed in PRP and PPP samples (0% and 100%, respectively).\nAnimals were randomly assigned to two treatment groups: vehicle control (i.e., normal saline) or RGD peptides at various concentrations. Peptides were administered intra-atrially in both bolus and continuous injections. Each bolus injection consisted of 0.5 to 10 mg/kg and was administered 15 minutes before application of the current. A continuous infusion of the same peptide was then started immediately after completion of this initial injection. Animals received a 25 μg/kg/min to 200 μg/kg/min infusion. The anti-thrombotic effects of the peptides were monitored until 30 minutes after the occurrence of a persistent, occlusive thrombus or five hours after the initiation of electrical stimulation (whichever resulted first). […]\nPlatelet counts and ex vivo aggregation studies were performed one hour before and 1, 3, and 5 hours after application of anodal direct current. Samples of arterial blood were drawn into plastic syringes containing 3.8% trisodium citrate (giving a 1:10 final dilution) and platelet aggregation determined as described in Example V.\nPlatelet aggregation was also determined ex vivo at one, three, and five hours after current application. […]",
  "note": "“And” between values parts separate entries of the source, which are not always exact repeats. Equal entries are not always repeated.",
  "data": [
    {"substance": "R(Pen)GRGDWPCR [4R]", "values": [
      {"measurement": "ex vivo aggregation reduced relative to control", "setting": "one hour", "result": "20-58%"},
      {"measurement": "ex vivo aggregation reduced relative to control", "setting": "three and five hours", "result": "75-100% and 72-100%"}
    ]}
  ]
}
